Source: US9120812B2, “Pyrimidooxazocine derivatives as mTOR-inhibitors” (SANOFI, priority 2012, dated 2015)

The chains behind the UniProt entries cited, without tags or fusion partners.
UniProt P42336, whole entry: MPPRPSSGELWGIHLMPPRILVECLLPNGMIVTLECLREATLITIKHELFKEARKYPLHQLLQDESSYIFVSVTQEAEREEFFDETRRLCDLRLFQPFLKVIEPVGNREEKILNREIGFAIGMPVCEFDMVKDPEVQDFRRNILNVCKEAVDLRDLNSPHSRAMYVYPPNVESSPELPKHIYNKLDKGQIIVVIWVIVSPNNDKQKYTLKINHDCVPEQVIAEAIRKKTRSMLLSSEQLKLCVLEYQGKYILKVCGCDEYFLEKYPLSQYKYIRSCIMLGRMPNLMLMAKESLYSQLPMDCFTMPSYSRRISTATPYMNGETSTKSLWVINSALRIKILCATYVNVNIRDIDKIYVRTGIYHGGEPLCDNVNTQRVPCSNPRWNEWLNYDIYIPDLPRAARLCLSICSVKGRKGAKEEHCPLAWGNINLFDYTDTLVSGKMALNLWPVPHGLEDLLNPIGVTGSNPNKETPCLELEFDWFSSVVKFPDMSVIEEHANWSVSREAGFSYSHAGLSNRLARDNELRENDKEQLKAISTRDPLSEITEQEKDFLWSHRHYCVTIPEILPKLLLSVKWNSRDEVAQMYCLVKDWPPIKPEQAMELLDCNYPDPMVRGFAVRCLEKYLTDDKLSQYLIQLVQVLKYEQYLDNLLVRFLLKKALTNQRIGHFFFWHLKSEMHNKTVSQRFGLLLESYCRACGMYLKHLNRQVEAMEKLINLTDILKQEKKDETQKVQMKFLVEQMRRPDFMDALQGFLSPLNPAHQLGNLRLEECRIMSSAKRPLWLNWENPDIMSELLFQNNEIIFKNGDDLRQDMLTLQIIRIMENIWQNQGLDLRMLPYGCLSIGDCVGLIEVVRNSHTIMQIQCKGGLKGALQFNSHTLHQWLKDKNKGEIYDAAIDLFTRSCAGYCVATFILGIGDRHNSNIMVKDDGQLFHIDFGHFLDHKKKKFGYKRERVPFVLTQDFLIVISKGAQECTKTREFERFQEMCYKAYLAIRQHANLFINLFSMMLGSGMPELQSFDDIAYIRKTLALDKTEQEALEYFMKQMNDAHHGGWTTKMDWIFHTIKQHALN

Molecular target: PI3Kα (p110α/p85α) (Homo sapiens (Human), UniProt P42336)
Assay: PI3Kα enzymatic test by measuring the consumption of ATP
Assay type: biochemical
Experimental: Model 2: PI3Kα Enzymatic Test by Measuring the Consumption of ATP.
The test uses a lucifeurerin/luciferase system to measure the concentration of ATP and its consumption during the enzymatic reaction. The test is performed in 96-well format (Corning/Costar 96 black flat-bottomed half-wells plate, ref. 3694) in a total volume of 30 μl.
To 1 μl of inhibitor in 100% DMSO are added (final concentrations) 50 μM of the substrate PIP2 ((L-α-phosphatidyl-D-myoinositol 4,5-bisphosphate, Echelon 117P-4516-0500), 2 μM of ATP and 1.7 μg/ml of PI3Kα, (p110α/p85α, Invitrogen PV4788) in a buffer of Tris/HCl 50 mM pH 7.5, EGTA 1 mM, MgCl2 10 mM, Chaps 0.03%, 1 mM DTT). After 90 minutes, the reaction is quenched by adding 20 μl/well of KinaseGlo reagent (Promega V6713). After 10 minutes in the dark, the luminescence is read on the PHERAStar microplate reader (reading at 0.8 sec/well).
The IC50 values are determined by the preparation of successive threefold dilutions on at least a scale of 10 000.

COCCN1CC(C)(C)Oc2nc(N3CC4CCC(C3)O4)nc(-c3ccc(NC(=O)Nc4cccc(OC(F)F)c4)c(F)c3)c2C1=O [Example 220, 1-(3-Difluoromethoxyphenyl)-3-{2-fluoro-4-[6-(2-methoxyethyl)-8,8-dimethyl-2-(8-oxa-3-azabicyclo[3.2.1]oct-3-yl)-5-oxo-5,6,7,8-tetrahydro-9-oxa-1,3,6-triazabenzocyclohepten-4-yl]phenyl}urea]
PI3Ka IC50: 1.86 µM
